## Yeast mating assay B: variants of the scFv Ab-14

Reference: Li et al. 2023, doi:10.1038/s41467-023-39022-2. File: FLAb, binding data.

Target peptide (SARS-CoV-2 spike, HR2 region): PDVDLGDISGINAS

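Phage display of a naive human antibody library on the peptide gave the parent. Designed CDR sequences, proposed from the first random library and measured here. Their group label is 14L_En_Gen (En: ensemble of fine-tuned language models; Gen: genetic algorithm). In AlphaSeq, yeast of one mating type display the scFv and yeast of the other type display the target. Binding brings cells together so that they mate, and sequencing counts the barcode pairs among the diploids. A regression on co-assayed BCL2-family reference pairs converts the normalised counts of each replicate to an apparent Kd. Mating was done six times.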

Each scFv is VH, three GGGGS repeats, VL, as in the parent Ab-14, and differs from it in the CDRs of the light chain only.
VH: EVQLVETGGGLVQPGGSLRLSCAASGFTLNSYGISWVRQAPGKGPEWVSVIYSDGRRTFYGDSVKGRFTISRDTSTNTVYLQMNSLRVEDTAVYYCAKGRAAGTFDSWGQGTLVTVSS
VL: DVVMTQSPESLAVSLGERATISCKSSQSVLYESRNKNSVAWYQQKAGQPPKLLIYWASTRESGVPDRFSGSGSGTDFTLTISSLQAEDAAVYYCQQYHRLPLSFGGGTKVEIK

Each variant is given by its three light chain CDRs, as the data file delimits them; those of the parent are KSSQSVLYESRNKNSVA, WASTRES, QQYHRLPLS. Numbers give log10(Kd / nM), so 0 is 1 nM and 3 is 1 µM. Smaller is tighter. Where no diploid with the target was found in that replicate, the entry reads "nd": below detection, most likely a poor binder, though not proof of it.

| CDR-L1 | CDR-L2 | CDR-L3 | log10 Kd, replicates | control signals |
|---|---|---|---|---|
| MISQLWNMGQFAINSVA | QASQRNA | QQYDRLPLM | 2.23 / nd / 1.31 / 1.16 / 1.92 / nd | 0/18 |
| TIGGTLMMGYKQRSNVA | EVSQRLN | QQYDRLPLM | 1.42 / 0.95 / 1.04 / 0.79 / 0.82 / 0.90 | 1/18 (2.41) |
| HLSAMSVTETVKSRNVA | ENSTREQ | QQYDRLPLA | nd / 2.17 / 2.04 / 2.85 / 2.17 / 3.43 | 1/18 (2.33) |
| QISMVLNFESAKGMNVA | QMETRVN | QQYDRLPLS | 1.40 / 1.65 / 1.07 / 0.87 / 2.03 / 1.37 | 0/18 |
| TIQMFLDNLYHNRNNVA | DTSTLGS | QSYDRLPLS | 1.20 / 1.15 / 0.66 / 1.17 / 0.49 / 1.21 | 0/18 |
| KIGMTLNTLMHQKNNVA | DLVTREQ | QQYHRLPLS | 1.04 / 0.23 / 0.63 / 0.26 / 0.40 / 0.67 | 1/18 (2.55) |
| SISGFMKTLSAHRNSVA | DMTNRED | QQYDHLPLS | 0.20 / 0.49 / 0.33 / 0.24 / 0.54 / 0.50 | 3/18 (2.01) |
| TIGGTLMYGMRNRSNVA | EVSERLN | QQYDRLPLI | 2.09 / 2.35 / nd / 1.43 / 1.68 / 2.29 | 1/18 (2.90) |
| MVSQLMLWGLHAKYSIA | EAQTRLN | QQYDRLPLI | 1.88 / nd / nd / 1.72 / 1.38 / nd | 1/18 (1.41) |
| TISELHNQALGIRNNVA | NNQTRED | QQYDRLPLS | nd / nd / nd / 3.09 / 3.12 / nd | 1/18 (3.09) |
| TVTQMAMTGMKNKRSVA | NAETREN | QQYHRLPLI | 0.57 / 0.40 / 0.64 / 0.44 / 0.73 / 0.67 | 0/18 |
| MLSQMWALGSKVKNSVA | QASMRFN | QQYERLPLI | nd / 2.24 / 1.72 / nd / nd / nd | 0/18 |
| TLYGLSMSMSKNKNNVA | EMTTREK | QQYDRLPLM | 0.15 / 0.60 / 0.17 / 0.15 / -0.01 / 0.15 | 0/18 |
| HITYGMYVSGRYKSNIA | QAETRAK | QQYDRLPLM | 0.63 / 0.36 / 0.55 / 0.78 / 0.13 / 0.96 | 1/18 (1.59) |
| MIHESSGLMSHKQSSIA | DNSTRED | QQYDRLPLS | nd / nd / 2.49 / nd / nd / 4.40 | 1/18 (3.40) |
| TLYGLTNSMSKNKDSVA | EMSTREL | QQYDRLPLA | 1.19 / 0.78 / 0.86 / 1.19 / 0.72 / 0.58 | 1/18 (4.62) |
| KISMLINQTFQMSNNVA | EMVTRYK | QQYNRLPLS | 1.29 / 1.24 / 1.73 / 1.45 / 2.04 / 1.57 | 1/18 (3.03) |
| KLGMTLNQLMHKKNNVA | DLVERET | QQYHRLPLS | 0.38 / 0.25 / 0.21 / 0.21 / 0.40 / 0.33 | 2/18 (3.54) |
| IVSQLMLWGWSAKNSIA | EAVTRYN | QQYDRLPLF | nd / 2.06 / nd / nd / nd / nd | 0/18 |
| IIDQIMYHGNKRANSIA | QASERVN | QQYHHLPLF | 1.15 / 1.24 / 0.56 / 1.04 / 0.48 / 0.79 | 1/18 (2.59) |
| TIGATLMYGMRNRSNVA | EVSERLN | QQYDRLPLL | 2.15 / nd / 1.85 / 1.39 / 1.67 / 3.22 | 0/18 |
| KITQTMRFEQKNSNNIA | EVTTRSK | QQYVRLPLA | -0.27 / -0.19 / -0.36 / -0.13 / -0.01 / -0.10 | 0/18 |
| KLSQITGHMSMSKNNVA | EMETREN | QQYDRLPLS | 2.52 / 1.19 / 1.54 / 1.12 / 0.75 / 1.47 | 0/18 |
| MISQLFNMGQFAINSVA | QASTRCE | QQYDRLPLM | nd / 2.13 / 1.19 / 1.91 / 2.88 / 1.63 | 1/18 (3.35) |
| MISQLYNMGQFAINSVA | QASIRNE | QQYDRLPLE | 1.51 / 1.63 / 1.40 / 1.45 / 1.95 / 1.83 | 0/18 |
| IVSQLMLWGMHAKNSIA | EAEMRIN | QQYHRLPLI | nd / 1.11 / 1.76 / 1.75 / 1.37 / 1.69 | 0/18 |
| IVSQLMLWGMHVKNSIA | EAVTRLN | QQYDRLPLG | nd / nd / 1.77 / nd / nd / nd | 0/18 |
| TISGVMMQLSHSKNNVA | EVSMRLD | QQYVRLPLA | nd / 1.52 / 1.69 / 0.20 / 1.48 / 1.07 | 0/18 |
| MVSQLMVWGMHAKNSIA | EAEHRCN | QQYDRLPLF | nd / 2.57 / nd / nd / nd / 2.50 | 0/18 |
| KIYQFGLNHSHNTNSIA | DQTCRED | QQYDRLPLS | 1.69 / 2.59 / 2.41 / 3.32 / nd / 1.73 | 0/18 |
| IVSQLMLWGLHAKNSIA | EAQTRFN | QQYERLPLF | nd / nd / nd / nd / nd / nd | 0/18 |
| TIGGTLMYGVRNRSNVA | EVSQRLN | QQYDRLPLF | 0.53 / 0.64 / 0.49 / 0.38 / 0.27 / 0.81 | 1/18 (3.70) |
| HITYGMYVSGRYKSNIA | QAETRES | QQYDRLPLI | 0.37 / 1.27 / 0.49 / 1.03 / 1.38 / 1.05 | 1/18 (1.65) |
| MISQLMNMGQFAINSVA | QAQIRNQ | QQYDRLPLA | nd / nd / nd / nd / 0.44 / nd | 0/18 |
| IVSQLMLWGYTAKNSIA | EAQTRVN | QQYDRLPLF | nd / nd / nd / nd / nd / nd | 0/18 |
| KLSGLMASSKFAKDNVA | ENNTREK | QQYDRLPLS | 2.35 / 1.87 / 2.20 / 2.05 / 1.65 / 2.91 | 1/18 (3.44) |
| HISGFMKTLSAHINNVA | DMTNRED | QQYDRLPLS | 0.38 / 0.36 / 0.30 / 0.09 / 0.40 / 0.51 | 0/18 |
| KISQMVRVGSTHSNSIA | EEQTRAK | QQYHRLPLS | 0.61 / 0.30 / 0.57 / -0.09 / 0.53 / 0.71 | 1/18 (2.66) |
| TISMVMNHMTREKNNVA | NMDMRED | QQYDRLPLS | -0.05 / -0.03 / -0.71 / -0.35 / -0.13 / -0.33 | 0/18 |
| KIGMTLNQLYEKANNVA | DLVEREN | QQYHRLPLS | 0.71 / 1.11 / 0.45 / 0.92 / 0.01 / 0.90 | 1/18 (1.28) |
| HMSMLTMMGMKQRNSVA | QMTTREN | QQYDRLPLM | 0.85 / 0.67 / 0.99 / 0.90 / 0.74 / 1.23 | 0/18 |
| MISQLYNMGQFAINSVA | QASTRNA | QQYDRLPLT | 1.86 / 1.50 / 1.26 / 2.08 / 2.58 / 1.69 | 0/18 |
| KLTNITGTEKVKGNNVA | EMETREE | QQYNRLPLS | 0.60 / 0.70 / 0.28 / 0.39 / 0.40 / 0.49 | 1/18 (1.57) |
| MVNGLTDHLSKNTNNVA | ETTTREA | QQYDRLPLV | 0.63 / 0.54 / 0.37 / 0.58 / 0.77 / 0.49 | 1/18 (2.27) |
| KIGGTLNTLMHQKNNVA | DLVMREM | QQYHRLPLS | 0.65 / 0.96 / 0.24 / -0.07 / 0.17 / 0.55 | 0/18 |
| KLGATYEGEKRNRQSVA | HNSMREN | QQYDRLPLI | 1.87 / 1.55 / 1.39 / 1.55 / 1.38 / 1.67 | 5/18 (3.36) |
| HITMGMYVSGRHMSNIA | QAETREK | QQYDRLPLI | 0.43 / -0.10 / 0.46 / 0.55 / 0.58 / 0.88 | 0/18 |

The 7 strongest on average among those seen in every replicate, once more:

| CDR-L1 | CDR-L2 | CDR-L3 | log10 Kd, replicates | control signals |
|---|---|---|---|---|
| TISMVMNHMTREKNNVA | NMDMRED | QQYDRLPLS | -0.05 / -0.03 / -0.71 / -0.35 / -0.13 / -0.33 | 0/18 |
| KITQTMRFEQKNSNNIA | EVTTRSK | QQYVRLPLA | -0.27 / -0.19 / -0.36 / -0.13 / -0.01 / -0.10 | 0/18 |
| TLYGLSMSMSKNKNNVA | EMTTREK | QQYDRLPLM | 0.15 / 0.60 / 0.17 / 0.15 / -0.01 / 0.15 | 0/18 |
| KLGMTLNQLMHKKNNVA | DLVERET | QQYHRLPLS | 0.38 / 0.25 / 0.21 / 0.21 / 0.40 / 0.33 | 2/18 (3.54) |
| HISGFMKTLSAHINNVA | DMTNRED | QQYDRLPLS | 0.38 / 0.36 / 0.30 / 0.09 / 0.40 / 0.51 | 0/18 |
| SISGFMKTLSAHRNSVA | DMTNRED | QQYDHLPLS | 0.20 / 0.49 / 0.33 / 0.24 / 0.54 / 0.50 | 3/18 (2.01) |
| KIGGTLNTLMHQKNNVA | DLVMREM | QQYHRLPLS | 0.65 / 0.96 / 0.24 / -0.07 / 0.17 / 0.55 | 0/18 |

Nonspecific signal, from three strains lacking the peptide, appeared in 4% of pairings of all light chain designs, centred on 2.64 (5% of these signals below 1.59); values are not corrected for it. The control count says in how many pairings with the empty strains this scFv gave a signal, with their mean in brackets. The range of this assay differs from that of the first round, and the authors advise against merging the two. The parent sequence was in this pool as ten entries: three were never detected, three once, and four in most replicates, with averages from 0.34 to 2.37. The authors' rule: three or more of the six replicates give a measured affinity, fewer mean a poor binder.